Experimental data taken from patent publication US9624228B2, “Inhibitors of ERK and methods of use” (KURA ONCOLOGY, INC., priority 2013, dated 2017).

Protein sequences, listed by entry. Tags and fused reporters are not part of them.
UniProt P28482, whole entry: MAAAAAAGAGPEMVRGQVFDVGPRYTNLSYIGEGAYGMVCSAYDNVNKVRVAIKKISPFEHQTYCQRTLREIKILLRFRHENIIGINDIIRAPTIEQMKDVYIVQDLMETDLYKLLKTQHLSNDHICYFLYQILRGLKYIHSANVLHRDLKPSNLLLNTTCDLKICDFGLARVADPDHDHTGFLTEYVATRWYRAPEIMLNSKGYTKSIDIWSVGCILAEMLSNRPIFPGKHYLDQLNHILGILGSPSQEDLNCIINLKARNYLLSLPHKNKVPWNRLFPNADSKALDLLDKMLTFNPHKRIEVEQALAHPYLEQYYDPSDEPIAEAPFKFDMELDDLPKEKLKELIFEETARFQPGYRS

Biological target: ERK2 enzyme (Homo sapiens (Human), UniProt P28482)
Assay: Inhibition assay of ERK (Z'-LYTE kinase assay, Ser/Thr 3 peptide substrate)
Settings: read-out: Erk2 IC50, In vitro, ERK2 enzyme 0.47 ng/μL, 100 μM ATP

IC50: < 50 nM
SMILES: CC(c1ccccc1)c1cc2cc3c(-c4ccc(N5CCN(C)CC5)nc4)n[nH]c3cc2[nH]c1=O (stereo not shown)
